Laboratory results: US20240294626A1 (Novartis, published 2024)

Experiments:
Experiment in all cases: cell-based or functional assay
Recombinant human IL-1β [1] = biological target: T1, Recombinant human IL-1β (human, UniProt P01584 117-269)
[2] = biological target: Recombinant marmoset IL-1β (marmoset, UniProt U3E018 117-268)
Recombinant human IL-18 [3] = biological target: T2, Recombinant human IL-18 (human, UniProt Q14116 37-193)
[4] = biological target: T3, Recombinant marmoset IL-18 (marmoset, UniProt U3CWC9 37-190)
T3 sequence: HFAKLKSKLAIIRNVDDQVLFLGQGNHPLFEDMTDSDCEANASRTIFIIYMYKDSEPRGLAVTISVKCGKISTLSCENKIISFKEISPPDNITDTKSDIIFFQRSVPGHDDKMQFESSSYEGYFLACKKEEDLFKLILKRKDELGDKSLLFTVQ

Recombinant human IL-1β [5] = biological target: T1, Recombinant human IL-1β; remark: listed apart in the source
Recombinant human IL-18 [6] = biological target: T2, Recombinant human IL-18; remark: listed apart in the source

- IC50, inhibition of IL-6 production in human PBMC stimulated with recombinant human IL-1β (60 pM) (Recombinant human IL-1β [1]): 1.35 nM
- IC50, inhibition of IL-6 production in human dermal fibroblasts stimulated with recombinant human IL-1β (6 pM) (Recombinant human IL-1β [1]): 0.136 nM
- IC50, inhibition of IL-6 production in human dermal fibroblasts stimulated with recombinant marmoset IL-1β (18 pM), Exp. C [2]: 0.22 nM
- IC50, inhibition of IL-6 production in marmoset dermal fibroblasts stimulated with recombinant marmoset IL-1β (18 pM), Exp. A [2]: 0.174 nM
- IC50, inhibition of IL-6 production in marmoset dermal fibroblasts stimulated with recombinant marmoset IL-1β (18 pM), Exp. B [2]: 0.364 nM
- IC50, inhibition of IFNγ production in KG-1 cells stimulated with recombinant human IL-18 (3 nM) and human IL-12 (1 ng/ml) (Recombinant human IL-18 [3]): 0.071 nM
- IC50, inhibition of IFNγ production in human PBMC stimulated with recombinant human IL-18 (3 nM) and human IL-12 (1 ng/ml) (Recombinant human IL-18 [3]): 0.87 nM
- IC50, inhibition of IFNγ production in marmoset whole blood stimulated with recombinant marmoset IL-18 (1 nM) and human IL-12 (10 ng/ml) [4]: 10 nM
- IC50, inhibition of SEAP in HEK Blue reporter cells stimulated simultaneously with IL-1β and IL-18 (one value for both cytokines) (Recombinant human IL-1β [5]): 0.71 nM
- IC50, inhibition of SEAP in HEK Blue reporter cells stimulated simultaneously with IL-1β and IL-18 (one value for both cytokines) (Recombinant human IL-18 [6]): 0.71 nM
B1: bbmAb1 (bispecific antibody, human IgG1, kappa, lambda, L234A L235A)
heavy 1: not shown
light 1: not shown
heavy 2: not shown
light 2: EIVLTQSPDFQSVTPKEKVTITCRASQSIGSSLHWYQQKPDQSPKLLIKYASQSFSGVPSRFSGSGSGTDFTLTINSLEAEDAAAYYCHQSSSLPFTFGPGTKVDIKRTVAAPSVFIFPPSDEQLKSGTASVVCLLNNFYPREAKVQWKVDNALQSGNSQESVTEQDSKDSTYSLSSTLTLSKADYEKHKVYACEVTHQGLSSPVTKSFNRGEC
